Some results are limits rather than exact numbers.

Chains of the proteins cited; added tags and fusions are not shown. Residues count along the entry.
UniProt H0W1Z3, 1-590: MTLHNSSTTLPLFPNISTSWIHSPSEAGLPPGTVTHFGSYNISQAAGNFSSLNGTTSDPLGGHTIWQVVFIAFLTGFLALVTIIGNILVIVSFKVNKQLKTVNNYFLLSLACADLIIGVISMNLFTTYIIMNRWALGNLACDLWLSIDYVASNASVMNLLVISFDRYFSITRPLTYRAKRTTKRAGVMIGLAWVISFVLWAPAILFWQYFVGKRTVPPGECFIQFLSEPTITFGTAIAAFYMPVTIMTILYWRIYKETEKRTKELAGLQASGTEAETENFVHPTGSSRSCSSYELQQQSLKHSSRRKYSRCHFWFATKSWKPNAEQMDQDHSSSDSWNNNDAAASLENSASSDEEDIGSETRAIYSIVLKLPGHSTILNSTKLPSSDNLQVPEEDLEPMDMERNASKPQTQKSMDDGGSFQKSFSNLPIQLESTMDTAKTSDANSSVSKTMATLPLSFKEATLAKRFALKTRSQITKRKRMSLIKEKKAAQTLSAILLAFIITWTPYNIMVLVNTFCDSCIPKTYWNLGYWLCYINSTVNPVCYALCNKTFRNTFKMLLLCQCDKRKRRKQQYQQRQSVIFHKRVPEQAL

One assay has as its target urinary bladder smooth muscle (muscarinic receptor) (Cavia porcellus, UniProt H0W1Z3). Put plainly: Functional in vitro study: antagonism of carbachol-induced contraction of urinary bladder smooth muscle strips (KB). To be noted: Table 1; guinea pig urinary bladder, carbachol agonist, 60 min incubation.
Consider `CC(C)N(CCOC(=O)[C@]1(c2ccccc2)C[C@H]1COCc1ccccc1)C(C)C` (relative stereo), for which the Kb came out at 260 nM.
On the same count and under the same terms, for `COC[C@@H]1C[C@]1(C(=O)OCCN(C(C)C)C(C)C)c1ccccc1` (relative stereo) the value was 18 nM.
Molecule `COC[C@@H]1C[C@@]1(C(=O)OCCN(C(C)C)C(C)C)c1ccccc1` (relative stereo) came in with a Kb of 26 nM.
On the same count and under the same terms, under `CC(C)N(CCOC(=O)[C@]1(c2ccccc2)C[C@H]1CO)C(C)C` (relative stereo) stands 390 nM.

Still in this assay, the particulars now being: Table 2; guinea pig urinary bladder, carbachol agonist, 60 min incubation.
The molecule `CN1CCCCC1COC(=O)C1(c2ccccc2)CCC1` (centres unmarked) gave a Kb of 14 nM.
For `CC(C)N(CCOC(=O)C1(c2ccc([N+](=O)[O-])cc2[N+](=O)[O-])CCC1)C(C)C`, the Kb was 130 nM.
The same measure, in the same setting: for `CN1CCC(OC(=O)C2(c3ccccc3)CCC2)CC1` the value was 1.7 nM; for `CC(C)N(CCOC(=O)C1(c2ccccc2)CC2(CCC2)C1)C(C)C`, 3.8 nM; for `CC(C)N(CCOC(=O)C1(c2cccc([N+](=O)[O-])c2)CCC1)C(C)C`, 610 nM.
Still for that read-out and setting: for `CN1[C@@H]2CC[C@H]1C[C@@H](OC(=O)C1(c3ccccc3)CCC1)C2` (relative stereo) the value was 2.6 nM.
Molecule `CCN(CC)CCOC(=O)C1(c2ccccc2)CC(CC)(CC)C1` yielded a Kb of 1.8 nM.
On the same count and under the same terms, under `CC(C)N(CCOC(=O)C1(c2ccsc2)CCC1)C(C)C` stands 28 nM; under `O=C(OCC1CN2CCC1CC2)C1(c2ccccc2)CCC1` (centres unmarked), 15 nM.
Still for that read-out and setting: for `O=C(OCCN1CCCC1)C1(c2ccccc2)CCC1` the value was 130 nM; for `CC(C)N(CCOC(=O)[C@@]1(c2ccccc2)CC[C@H]1C)C(C)C` (relative stereo), 29 nM.
The same measure, in the same setting: under `CC(C)N(CCOC(=O)[C@]1(c2ccccc2)CC[C@H]1C)C(C)C` (relative stereo) stands 27 nM.
Consider `CN1CCCC(COC(=O)C2(c3ccccc3)CC(C)(C)C2)C1` (centres unmarked), for which the Kb was found to be 1.9 nM.
On the same count and under the same terms, for `CCN(CC)CCCOC(=O)C1(c2ccccc2)CCC1` the value was 37 nM.
Same read-out and setting: under `CC(C)N(CCOC(=O)C1(c2ccc3ccccc3c2)CCC1)C(C)C` stands above 500 nM.
On the same count and under the same terms, for `CC(C)N(CCOC(=O)C1(c2cccc(N)c2)CCC1)C(C)C` the value was 35 nM; for `CC(C)N(CCOC(=O)C1(c2ccccc2)CCC1)C(C)C`, 22 nM; for `CN1CCCC(COC(=O)C2(c3ccccc3)CCC2)C1` (centres unmarked), 11 nM.
In turn, `C=C1CC(C(=O)OCCN(C(C)C)C(C)C)(c2ccccc2)C1` showed a Kb of 3.4 nM.
The same measure, in the same setting: for `CC(C)N(CCOC(=O)C1(c2ccc3c(c2)OCO3)CCC1)C(C)C` the value was 40 nM; for `CC(C)N(CCOC(=O)C1(c2ccc([N+](=O)[O-])cc2)CCC1)C(C)C`, 340 nM; for `CC(C)N(CCOC(=O)C1(c2cccc3ccccc23)CCC1)C(C)C`, 22 nM.
Molecule `CC(C)N(CCOC(=O)C1(c2ccccc2)CC(=O)C1)C(C)C` displayed a Kb of 124 nM.
On the same count and under the same terms, under `CCC1(CC)CC(C(=O)OCCN(C(C)C)C(C)C)(c2ccccc2)C1` stands 19 nM.
Still for that read-out and setting: for `CCN(CC)CCOC(=O)C1(c2ccccc2)CCC1` the value was 14 nM.
Still for that read-out and setting: under `CCN(CC)CCOC(=O)C1(c2ccccc2)CC(C)(C)C1` stands 3.4 nM; under `CC(C)N(CCOC(=O)C1(c2ccccc2)CC(C)(C)C1)C(C)C`, 1.6 nM.

Staying with this assay, now noted: Table 3; guinea pig urinary bladder, carbachol agonist, 60 min incubation.
`CC(C)N(CCOC(=O)C1(c2cccs2)CCCC1)C(C)C` displayed a Kb of 15 nM.
Same read-out and setting: under `CCN(CC)CCOC(=O)C1(c2cccs2)CCCC1` stands 15 nM.
For `CCN(CC)CCOC(=O)C1(c2ccsc2)CCCC1`, the Kb amounted to 15 nM.
Still for that read-out and setting: for `CC(C)N(CCOC(=O)C1(c2ccccc2)CCCC1)C(C)C` the value was 5.7 nM; for `CN1CCC(OC(=O)C2(c3cccs3)CCCC2)CC1`, 20 nM.
Same read-out and setting: under `CN1[C@@H]2CC[C@H]1CC(OC(=O)C1(c3cccs3)CCCC1)C2` (some centres unmarked) stands 12 nM; under `CC(C)N(CCOC(=O)C1(c2ccsc2)CCCC1)C(C)C`, 24 nM; under `CN1CCCC(COC(=O)C2(c3cccs3)CCCC2)C1` (centres unmarked), 20 nM.

The assay is the same for the next values; noted with them: Table 4; guinea pig urinary bladder, carbachol agonist, 60 min incubation.
`CC(C)N(CCOC(=O)C1(c2ccccc2)CCC(=O)CC1)C(C)C`: the Kb turned out to be 234 nM.
Consider `CC(C)N(CCOC(=O)C1(c2ccccc2)CCCCC1)C(C)C`, for which the Kb was 21 nM.
Still for that read-out and setting: for `COC1CCC(C(=O)OCCN(C(C)C)C(C)C)(c2ccccc2)CC1` (centres unmarked) the value was 29 nM.
The same measure, in the same setting: under `CC(C)N(CCOC(=O)C1(c2ccccc2)CCC(C)(C)CC1)C(C)C` stands 50 nM.
Consider `CC(C)N(CCOC(=O)C1(c2ccccc2)CCC2(CC1)OCCO2)C(C)C`, for which the Kb is 5 nM.

The next assay deals with small intestinal muscle (muscarinic receptor) (Cavia porcellus, UniProt H0W1Z3). Put plainly: Functional in vitro study on small intestinal muscle (KB). The note with it: Table 5; guinea pig small intestinal muscle.
The molecule `CC(C)N(CCOC(=O)C1(c2ccccc2)CCCC1)C(C)C` displayed a Kb of 3.9 nM.
On the same count and under the same terms, for `CC(C)N(CCOC(=O)C1(c2ccccc2)CCCCC1)C(C)C` the value was 0.41 nM; for `NC(=O)C(c1ccccc1)(c1ccccc1)[C@@H]1CCN(CCc2ccc3c(c2)CCO3)C1`, 10 nM.

The subject of the next assay is muscarinic receptor. Briefly: Validation of filtration against centrifugation receptor binding assay. The note with it: within the experimental error.
For `CCN(CC)CC1CCCCN1CC(=O)N1c2ccccc2C(=O)Nc2cccnc21` (centres unmarked), the “Ki-values, filtration assay compared with centrifugation assay” value was “almost identical”.
The same measure, in the same setting: under `CN1[C@@H]2CC[C@H]1C[C@@H](OC(=O)C(CO)c1ccccc1)C2` (some centres unmarked) stands “almost identical”; under `C[N+]1(C)CCC(OC(=O)C(c2ccccc2)c2ccccc2)CC1`, “almost identical”.

(Values after patent US6124354A, “Arylcycloalkane carboxylic esters, their use, pharmaceutical compositions and preparation” (dated 2000).)
